Sequences of proteins named here, by UniProt entry; tags and fusion partners are left off.
UniProt Q923Y8, whole entry: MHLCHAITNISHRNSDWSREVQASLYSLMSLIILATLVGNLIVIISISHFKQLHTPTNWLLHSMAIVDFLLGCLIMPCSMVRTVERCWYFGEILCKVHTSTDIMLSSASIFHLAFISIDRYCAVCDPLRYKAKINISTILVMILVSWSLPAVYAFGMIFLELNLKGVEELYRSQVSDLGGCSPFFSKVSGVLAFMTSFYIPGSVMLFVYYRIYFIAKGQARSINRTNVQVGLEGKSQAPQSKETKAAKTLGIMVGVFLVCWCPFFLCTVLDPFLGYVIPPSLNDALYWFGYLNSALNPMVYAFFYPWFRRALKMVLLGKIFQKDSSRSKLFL
UniProt Q923Y9, whole entry: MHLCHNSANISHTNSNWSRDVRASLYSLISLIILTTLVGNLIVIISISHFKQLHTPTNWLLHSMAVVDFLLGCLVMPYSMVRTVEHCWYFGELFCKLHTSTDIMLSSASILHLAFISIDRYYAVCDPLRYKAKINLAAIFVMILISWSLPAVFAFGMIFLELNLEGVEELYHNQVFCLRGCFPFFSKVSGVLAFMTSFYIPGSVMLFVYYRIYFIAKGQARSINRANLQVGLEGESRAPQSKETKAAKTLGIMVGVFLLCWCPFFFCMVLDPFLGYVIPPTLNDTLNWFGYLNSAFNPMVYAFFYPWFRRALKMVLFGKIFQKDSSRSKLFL

What follows are compounds tested against mouse TAAR1 (Mus musculus (Mouse), UniProt Q923Y8) (assay: Radioligand binding assay on mouse TAAR1). Conditions: mouse TAAR1, membranes of stably transfected HEK-293 cells; first value of the pair; read-out: Ki (μM) mouse/rat: mouse.
Procedure: (§1) For the construction of expression plasmids the coding sequences of human, rat and mouse TAAR 1 were amplified from genomic DNA essentially as described by Lindemann et al.. The Expand High Fidelity PCR System (Roche Diagnostics) was used with 1.5 mM Mg^2+ and purified PCR products were cloned into pCR2.1-TOPO cloning vector (Invitrogen) following the instructions of the manufacturer. PCR products were subcloned into the pIRESneo2 vector (BD Clontech, Palo Alto, Calif.), and expression vectors were sequence verified before introduction in cell lines.
(§2) For the generation of stably transfected cell lines HEK293 cells were transfected with the pIRESneo2 expression plasmids containing the TAAR coding sequences (described above) with Lipofectamine 2000 (Invitrogen) according to the instructions of the manufacturer, and 24 hrs post transfection the culture medium was supplemented with 1 mg/ml G418 (Sigma, Buchs, Switzerland). After a culture period of about 10 d clones were isolated, expanded and tested for responsiveness to trace amines (all compounds purchased from Sigma) with the cAMP Biotrak Enzyme immunoassay (EIA) System (Amersham) following the non-acetylation EIA procedure provided by the manufacturer.
Radioligand Binding Assay on Mouse TAAR1
(§3) Membrane Preparation and Radioligand Binding.
(§4) Cells were released from culture flasks using trypsin/EDTA, harvested, washed twice with ice-cold PBS (without Ca^2+ and Mg^2+), pelleted at 1,000 rpm for 5 min at 4° C., frozen and stored at −80° C. Frozen pellets were suspended in 20 ml HEPES-NaOH (20 mM, pH 7.4) containing 10 mM EDTA and homogenized with a Polytron (PT 6000, Kinematica) at 14′000 rpm for 20 s. The homogenate was centrifuged at 48,000×g for 30 min at 4° C. Subsequently, the supernatant was removed and discarded, and the pellet resuspended in 20 ml HEPES-NaOH (20 mM, pH 7.4) containing 0.1 mM EDTA using the Polytron (20 s at 14′000 rpm). This procedure was repeated and the final pellet resuspended in HEPES-NaOH containing 0.1 mM EDTA and homogenized using the Polytron. Typically, aliquots of 2 ml membrane portions were stored at −80° C. With each new membrane batch the dissociation constant (Kd) was determined via a saturation curve. […] Nonspecific binding was defined as the amount of ^3[H]—(S)-4-[(ethyl-phenyl-amino)-methyl]-4,5-dihydro-oxazol-2-ylamine bound in the presence of 10 μM unlabeled ligand. All compounds were tested at a broad range of concentrations (10 pM to 10 μM) in duplicates. […] The 96 deep well plates were incubated for 1 hr at 4° C. Incubations were terminated by rapid filtration through Unifilter-96 plates (Packard Instrument Company) and glass filters GF/C (Perkin Elmer) presoaked for 1 hr in polyethylenimine (0.3%) and washed 3 times with 1 ml of cold binding buffer. After addition of 45 μl of Microscint 40 (PerkinElmer) the Unifilter-96 plate was sealed and after 1 hr the radioactivity counted using a TopCount Microplate Scintillation Counter (Packard Instrument Company).
For FC(F)(F)c1ccc(Nc2ccc([C@H]3CNCCO3)nc2)cc1 [Example 25, 6-[(2R)-Morpholin-2-yl]-N-[4-(trifluoromethyl)phenyl]pyridin-3-amine], the Ki was 0.0048 µM.
O=C(Nc1ccc([C@H]2CNCCO2)nc1)Nc1cccc(Cl)c1 [Example 61, 1-(3-Chlorophenyl)-3-[6-[(2R)-morpholin-2-yl]-3-pyridyl]urea] gave a Ki of 0.0035 µM.
Fc1cc(Nc2ccc(Cl)cn2)cnc1C1CNCCO1 (racemic) [Example 110, (RS)—N-(5-Chloro-2-pyridyl)-5-fluoro-6-morpholin-2-yl-pyridin-3-amine] was tested, and the Ki was 0.0245 µM.
For O=C(Nc1ccc([C@H]2CNCCO2)nc1)c1ccnc(C(F)(F)F)c1 [Example 54, N-[6-[(2R)-Morpholin-2-yl]-3-pyridyl]-2-(trifluoromethyl)pyridine-4-carboxamide], the Ki was 0.0329 µM.
Work on FC(F)(F)c1ccc(Nc2cnc(C3CNCCO3)c(Cl)c2)nc1 (racemic) [Example 103, (RS)-5-Chloro-6-morpholin-2-yl-N-[5-(trifluoromethyl)-2-pyridyl]pyridin-3-amine] yielded a Ki of 0.0677 µM.
CCOc1n[nH]c(C(=O)Nc2ccc([C@@H]3CNCCO3)nc2)c1Cl [Example 106, 4-Chloro-3-ethoxy-N-[6-[(2S)-morpholin-2-yl]-3-pyridyl]-1H-pyrazole-5-carboxamide] showed a Ki of 0.0085 µM.
O=C(Nc1ccc([C@H]2CNCCO2)nc1)c1[nH]nc(OCC(F)(F)F)c1Cl [Example 101, 4-Chloro-N-[6-[(2R)-morpholin-2-yl]-3-pyridyl]-3-(2,2,2-trifluoroethoxy)-1H-pyrazole-5-carboxamide] showed a Ki of 0.0094 µM.
Work on Clc1cccc(Nc2ccc(C3CNCCO3)nc2)c1 (racemic) [Example 4, (RS)—N-(3-Chlorophenyl)-6-morpholin-2-yl-pyridin-3-amine] yielded a Ki of 0.0034 µM.
Work on CCOc1n[nH]c(C(=O)Nc2ccc([C@H]3CNCCO3)nc2)c1Cl [Example 100, 4-Chloro-3-ethoxy-N-[6-[(2R)-morpholin-2-yl]-3-pyridyl]-1H-pyrazole-5-carboxamide] yielded a Ki of 0.0158 µM.
With O=C(Nc1ccc([C@@H]2CNCCO2)nc1)c1ccnc(C(F)(F)F)c1 [Example 34, N-[6-[(2S)-Morpholin-2-yl]-3-pyridyl]-2-(trifluoromethyl)pyridine-4-carboxamide] the Ki was 0.0427 µM.
For FC(F)(F)c1ccc(Nc2ccc([C@@H]3CNCCO3)nc2)cc1 [Example 19, 6-[(2S)-Morpholin-2-yl]-N-[4-(trifluoromethyl)phenyl]pyridin-3-amine], the Ki was 0.0027 µM.
Work on O=C(Nc1ccc([C@@H]2CNCCO2)nc1)Nc1cccc(Cl)c1 [Example 41, 1-(3-Chlorophenyl)-3-[6-[(2S)-morpholin-2-yl]-3-pyridyl]urea] yielded a Ki of 0.0016 µM.
O=C(Nc1ccc([C@@H]2CNCCO2)nc1)c1cccc(Cl)c1 [Example 32, 3-Chloro-N-[6-[(2S)-morpholin-2-yl]-3-pyridyl]benzamide] gave a Ki of 0.0028 µM.

Each compound was assayed against rat TAAR1 (Rattus norvegicus (Rat), UniProt Q923Y9) (assay: Radioligand binding assay on rat TAAR1). Conditions: rat TAAR1, membranes of stably transfected HEK-293 cells; second value of the pair; read-out: Ki (μM) mouse/rat: rat.
Procedure: as §1, §2
Radioligand Binding Assay on Rat TAAR1
as §3
as §4, with “1′000” for “1,000”, “48′000×g” for “48,000×g”
For FC(F)(F)c1ccc(Nc2ccc([C@H]3CNCCO3)nc2)cc1 [Example 25, 6-[(2R)-Morpholin-2-yl]-N-[4-(trifluoromethyl)phenyl]pyridin-3-amine], the Ki was 0.0254 µM.
With O=C(Nc1ccc([C@H]2CNCCO2)nc1)Nc1cccc(Cl)c1 [Example 61, 1-(3-Chlorophenyl)-3-[6-[(2R)-morpholin-2-yl]-3-pyridyl]urea] the Ki was 0.0132 µM.
FC(F)(F)c1ccc(Nc2ccc(C3CNCCO3)nc2)cc1 (racemic) [Example 6, (RS)-6-Morpholin-2-yl-N-[4-(trifluoromethyl)phenyl]pyridin-3-amine] was tested, and the Ki was 0.0159 µM.
Work on Clc1cccc(Nc2ccc(C3CNCCO3)nc2)c1 (racemic) [Example 4, (RS)—N-(3-Chlorophenyl)-6-morpholin-2-yl-pyridin-3-amine] yielded a Ki of 0.0794 µM.
CCCc1n[nH]c(C(=O)Nc2cnc(C3CNCCO3)c(Cl)c2)c1Cl (racemic) [Example 108, (RS)-4-Chloro-N-(5-chloro-6-morpholin-2-yl-3-pyridyl)-3-propyl-1H-pyrazole-5-carboxamide] showed a Ki of 0.0321 µM.
